Measured values published in patent publication US12240815B2, “Potent and selective human neuronal nitric oxide synthase inhibitors” (Northwestern University, priority 2020, dated 2025).

Tests used:
[1] = target: rat nNOS (Rattus norvegicus, UniProt P29476); assay: NO hemoglobin capture assay, rat nNOS; type: biochemical; settings: Table 1; Ki from IC50 by Cheng-Prusoff; 10 μM L-Arg, pH 7.4, 37° C.
[2] = target: murine macrophage iNOS (Mus musculus, UniProt P29477); assay: NO hemoglobin capture assay, murine iNOS; type: biochemical; settings: Table 1; Ki from IC50 by Cheng-Prusoff; 10 μM L-Arg, pH 7.4, 37° C.
[3] = target: human eNOS (Homo sapiens, UniProt P29474); assay: NO hemoglobin capture assay, human eNOS; settings: read-out: Ki human eNOS; Table 2
[4] = target: human iNOS (Homo sapiens, UniProt P35228); assay: NO hemoglobin capture assay, human iNOS; settings: read-out: Ki human iNOS; Table 2

Cc1cc(N)nc(CCc2cc(CC[C@H]3CCN3C)cc(F)c2F)c1 [Compound 21, (S)-6-(2,3-difluoro-5-(2-(1-methylazetidin-2-yl)ethyl)phenethyl)-4-methylpyridin-2-amine]
Ki [1]: 26 nM
Ki [2]: 2060 nM
Ki [3]: 22 µM
Ki [4]: 1780 nM
